Tests used:
Des1 (h) = Des1 (h) (Homo sapiens, UniProt O15121); assay: Measurement of Dihydroceramide Desaturase-1 (Des-1) activity in intact Jurkat cells labeled with DhCer-C6-NBD (HPLC); conditions: read-out: Des1 (h) Jurkat IC50, given as concentration range, or <X / >X if measured at one concentration X only
[1] = test system: Connective Tissue Growth Factor (CTGF) gene expression; assay: Real time quantitative PCR in TGFβ-stimulated human hepatic stellate cells (LX2) to detect CTGF gene expression; assay type: cell-based; conditions: 5 μM; CTGF mRNA in TGFβ-stimulated LX2 cells vs vehicle control
Experimental: Real Time Quantitative Polymerase Chain Reaction in Human Hepatic Stellate Cells (LX2) to Detect Connective Tissue Growth Factor (CTGF) Gene Expression The hepatic stellate cell line, LX2 was maintained in DMEM (LifeTechnologies) with 2% heat-inactivated FBS, 100U penicillin (LifeTechnologies), 0.1 mg/mL streptomycin (LifeTechnologies), and 2 mM L-glutamine (LifeTechnologies) at 37° C. with 5% CO2. Cells were seeded into 6-well plates (200,000 cells per well, 2 mLs media) and grown overnight. The cells were changed to 2 mLs 0.5% FBS media for 24 hours prior to treatment. Treatments were added in 2 mLs fresh 0.5% FBS media (vehicle control, long/mL TGFβ alone (R&D Systems), 10 ng/mL TGFβ+inhibitors) and incubated for 24 hours. […] RNA was extracted using Qiagen RNeasy kit (cat #74104), according to manufacturer's instructions. RNA (1 μg) was used to generate cDNA using the Qiagen Quantitect Reverse Transcription Kit (cat #205311), and stored at -20° C. cDNA was diluted (1:25 final) and combined with Sybr Green (Qiagen cat #204143), forward and reverse primers (50 ng each) and run on Real Time PCR Thermocycler machine (RG-6000, Corbett) with the following PCR conditions: Hold 1: 50° C. for 2 min; Hold 2: 95° C. for 15 min; Cycling: 45 cycles of: 95° C. for 30 sec, 58° C. for 21 sec, 72° C. for 15 sec, Hold 3: 72° C. for 30 sec, Melt: 72° C. to 99° C. […]

Sequences of proteins named here, by UniProt entry; tags and fusion partners are left off.
UniProt O15121, whole entry: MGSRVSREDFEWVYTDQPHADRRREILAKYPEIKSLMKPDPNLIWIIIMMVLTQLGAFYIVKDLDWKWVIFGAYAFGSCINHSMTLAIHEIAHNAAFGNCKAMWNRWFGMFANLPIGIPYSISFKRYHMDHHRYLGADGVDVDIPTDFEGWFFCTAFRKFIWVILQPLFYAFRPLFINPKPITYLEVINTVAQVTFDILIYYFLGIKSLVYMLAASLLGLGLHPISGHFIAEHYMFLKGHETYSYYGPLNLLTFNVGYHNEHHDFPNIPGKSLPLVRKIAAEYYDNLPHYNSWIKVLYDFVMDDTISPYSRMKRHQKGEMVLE

- IC50 (Des1 (h)): < 1000 nM
SMILES: NC(=NO)c1cnc(Nc2cnn(-c3ccc(C(F)(F)F)cc3)c2)cn1
- CTGF, LX2 % inhibition [1]: >90%

— patent publication US12448371B2, “Inhibitor compounds” (Cincera Therapeutics Pty Ltd, priority 2019, dated 2025)
